This test concerns the target T1, Human PAR-2 peptide (SEQ ID NO:1, Residues 33-54) (human).
T1 peptide: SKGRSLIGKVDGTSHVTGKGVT
In words: Kinexa, peptide in solution. The protocol: Binding to peptide in solution was determined by Kinexa technology.

B1: Antibody Par-D (antibody, V domains shown)
VH: QVELVESGGGLVQPGGSLRLSCAASGFTFSNHAMHWVRQAPGKGLEWVSAISHPGKFTYYADSVKGRFTISRDNSKNTLYLQMNSLRAEDTAVYYCARHGDGMDYFDFWGQGTLVTVSS
VL: DIELTQPPSVSVAPGQTARISCSGDNIGTKYVYWYQQKPGQAPVLVIYDDNNRPSGIPERFSGSNSGNTATLTISGTQAEDEADYYCQSYDSQTMVFGGGTKLTVLG
notes: Codon-optimized version of Ab4996
B1 gave a Kd of 0.15 nM.

One may read the Kd as the equilibrium constant for the complex coming apart. A high value points to a looser complex.

The values above are taken from patent US20100119506A1 (published 2010).
